{"source": "ChEMBL document CHEMBL1142268", "about": "“Histone deacetylase inhibitors: from bench to clinic” (J Med Chem, 2008)", "target": "T1, Protein deacetylase HDAC6 (Homo sapiens, UniProt Q9UBN7)", "T1 sequence (Q9UBN7 whole entry)": "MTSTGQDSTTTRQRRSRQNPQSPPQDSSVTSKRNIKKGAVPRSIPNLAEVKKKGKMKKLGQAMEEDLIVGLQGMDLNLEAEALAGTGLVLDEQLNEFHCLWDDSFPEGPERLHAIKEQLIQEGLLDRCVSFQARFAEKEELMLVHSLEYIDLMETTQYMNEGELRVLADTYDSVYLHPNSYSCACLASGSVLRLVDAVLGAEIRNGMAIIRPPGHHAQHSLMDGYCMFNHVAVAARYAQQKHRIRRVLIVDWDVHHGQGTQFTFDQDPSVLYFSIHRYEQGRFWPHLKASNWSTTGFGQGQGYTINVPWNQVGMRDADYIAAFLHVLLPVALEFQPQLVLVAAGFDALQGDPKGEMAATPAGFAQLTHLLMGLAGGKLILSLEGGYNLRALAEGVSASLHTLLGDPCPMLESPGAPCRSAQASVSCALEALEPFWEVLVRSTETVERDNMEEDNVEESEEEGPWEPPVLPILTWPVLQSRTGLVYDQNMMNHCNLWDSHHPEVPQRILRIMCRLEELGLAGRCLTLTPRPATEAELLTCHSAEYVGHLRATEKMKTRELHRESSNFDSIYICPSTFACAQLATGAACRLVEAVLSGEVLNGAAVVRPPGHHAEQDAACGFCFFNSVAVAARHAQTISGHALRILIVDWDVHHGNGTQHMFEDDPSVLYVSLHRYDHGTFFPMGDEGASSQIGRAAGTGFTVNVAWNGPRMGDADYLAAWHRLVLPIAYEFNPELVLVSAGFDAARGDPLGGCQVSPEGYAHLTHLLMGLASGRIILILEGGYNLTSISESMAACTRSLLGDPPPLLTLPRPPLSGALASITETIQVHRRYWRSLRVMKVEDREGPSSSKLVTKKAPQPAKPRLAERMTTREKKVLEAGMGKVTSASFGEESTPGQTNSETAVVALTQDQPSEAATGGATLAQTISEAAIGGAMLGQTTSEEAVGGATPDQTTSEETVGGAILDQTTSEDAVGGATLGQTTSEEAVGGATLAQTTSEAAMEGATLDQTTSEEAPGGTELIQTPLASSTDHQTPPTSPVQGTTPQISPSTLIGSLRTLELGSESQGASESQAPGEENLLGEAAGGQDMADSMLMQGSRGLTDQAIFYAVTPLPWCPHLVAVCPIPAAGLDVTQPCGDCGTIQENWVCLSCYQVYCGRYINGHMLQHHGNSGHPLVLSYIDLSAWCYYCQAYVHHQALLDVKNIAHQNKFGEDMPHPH", "data": [{"smiles": "CC(=O)Nc1ccc(C(=O)Nc2cc(-c3cccs3)ccc2N)cc1", "values": [{"measurement": "IC50", "value": "> 20", "unit": "µM"}]}]}
